pKi: −log10 of the molar value.

The test concerns the target Prothrombin/thrombin (Homo sapiens) (UniProt P00734). As to the kind of experiment: Inhibition of amidolytic activity of thrombin.

On to `N=C(N)N1CCC(CNC(=O)[C@@H]2CC[C@H]3CN(C(=O)CC(c4ccccc4)c4ccccc4)CC(=O)N32)CC1` [(6S,8aS)-2-(3,3-Diphenyl-propionyl)-4-oxo-octahydro-pyrrolo[1,2-a]pyrazine-6-carboxylic acid (1-carbamimidoyl-piperidin-4-ylmethyl)-amide], for which the pKi was 7.10.

The term pKi denotes the negative decadic logarithm of the Ki, by convention in mol/L. High values mean a low Ki, low ones a high Ki.
